Assay results: ChEMBL document CHEMBL6096705, “Identification of a Chemical Probe for BLT2 Activation by Scaffold Hopping” (J Med Chem, 2025)
Active and inactive are the calls of the source. The calls are words filed in the database; no cut-off is given here.

Key:
[1] = biological target: T1, Type-1 angiotensin II receptor (Homo sapiens, UniProt P30556); experiment: Antagonist activity at human AT1 receptor expressed in CHO-K1 cells co-expressing GNA14 assessed as inhibition of Val5-Angiotensin-II induced IP-1 accumulation incubated for 90 mins by HTRF assay; type: cell-based
[2] = biological target: T1, Type-1 angiotensin II receptor; experiment: Agonist activity at human AT1 receptor expressed in CHO-K1 cells co-expressing GNA14 assessed as IP-1 accumulation incubated for 90 mins by HTRF assay; type: functional, cell-based

Structure (SMILES)	Activity [1]	Activity [2]
CCCn1c(=O)n(-c2ccccc2)c2cc(-c3ccccc3C(=O)O)ccc21	inactive	–
CCCCn1c(=O)n(Cc2ccc(-c3ccccc3C(=O)O)cc2)c2ccccc21	inactive	–
CCCn1c(=O)n(Cc2ccccc2)c2cc(-c3ccccc3C(=O)O)ccc21	inactive	–
CCCCC(=O)N1Cc2ccc(-c3ccccc3C(=O)O)cc2C1	inactive	–
CCCCC(=O)N1CC2(C1)CN(c1ccccc1-c1nnn[nH]1)C2	inactive	inactive
CCCCC(=O)N1CC2(CCN(c3ccccc3-c3nnn[nH]3)CC2)C1	inactive	inactive
